Data: US10214515B2, “Substituted pyrazoles as inhibitors of fibroblast growth factor receptor” (Zhejiang Hisun Pharmaceutical Co., Ltd., priority 2015, dated 2019)

Sequences of proteins named here, by UniProt entry; tags and fusion partners are left off. Residues count along the entry.
UniProt P11362, 22-822: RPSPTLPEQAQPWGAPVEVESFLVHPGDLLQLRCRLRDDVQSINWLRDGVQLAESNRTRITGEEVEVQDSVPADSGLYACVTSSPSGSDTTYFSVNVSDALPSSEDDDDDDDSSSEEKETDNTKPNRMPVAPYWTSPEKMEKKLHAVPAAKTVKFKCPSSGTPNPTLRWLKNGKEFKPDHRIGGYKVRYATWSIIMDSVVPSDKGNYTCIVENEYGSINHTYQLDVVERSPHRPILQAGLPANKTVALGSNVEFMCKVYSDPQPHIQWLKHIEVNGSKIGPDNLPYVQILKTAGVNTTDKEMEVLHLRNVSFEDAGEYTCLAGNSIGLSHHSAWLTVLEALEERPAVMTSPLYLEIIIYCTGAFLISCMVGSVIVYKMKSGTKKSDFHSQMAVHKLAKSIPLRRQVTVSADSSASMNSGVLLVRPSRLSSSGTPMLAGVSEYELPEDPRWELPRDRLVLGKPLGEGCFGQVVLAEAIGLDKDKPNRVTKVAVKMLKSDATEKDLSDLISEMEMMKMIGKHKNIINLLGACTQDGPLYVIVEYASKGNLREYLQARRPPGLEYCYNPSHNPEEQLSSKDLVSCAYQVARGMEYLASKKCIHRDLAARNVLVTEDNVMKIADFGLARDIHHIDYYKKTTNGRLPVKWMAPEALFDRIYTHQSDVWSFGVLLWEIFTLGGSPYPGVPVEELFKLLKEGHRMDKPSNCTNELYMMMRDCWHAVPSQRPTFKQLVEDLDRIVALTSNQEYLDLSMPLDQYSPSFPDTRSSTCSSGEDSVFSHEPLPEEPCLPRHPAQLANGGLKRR

Biological target: FGFR1 (Homo sapiens (Human), UniProt P11362)
Conditions: read-out: IC50(nM) FGFR1; recombinant human FGFR1, ATP at Km

IC50: > 10000 nM
SMILES: CCOC(=O)c1nc2cc(-n3ncc(C(=O)c4cc5ccccc5[nH]4)c3N)ccc2[nH]1 [Example 9, Ethyl 5-(5-Amino-4-(1H-indole-2-carbonyl)-1H-pyrazol-1-yl)-1H-benzo[d]imidazole-2-carboxylate]
